In patent US9890152B2 (Genentech, Inc., priority 2012, dated 2018) one finds Ki data, which are given here for 35 compounds.

Amino acid sequences for entries named in this document (tags omitted). Residues count along the entry.
UniProt P00533, 25-1210 T790M/L858R limits assumed: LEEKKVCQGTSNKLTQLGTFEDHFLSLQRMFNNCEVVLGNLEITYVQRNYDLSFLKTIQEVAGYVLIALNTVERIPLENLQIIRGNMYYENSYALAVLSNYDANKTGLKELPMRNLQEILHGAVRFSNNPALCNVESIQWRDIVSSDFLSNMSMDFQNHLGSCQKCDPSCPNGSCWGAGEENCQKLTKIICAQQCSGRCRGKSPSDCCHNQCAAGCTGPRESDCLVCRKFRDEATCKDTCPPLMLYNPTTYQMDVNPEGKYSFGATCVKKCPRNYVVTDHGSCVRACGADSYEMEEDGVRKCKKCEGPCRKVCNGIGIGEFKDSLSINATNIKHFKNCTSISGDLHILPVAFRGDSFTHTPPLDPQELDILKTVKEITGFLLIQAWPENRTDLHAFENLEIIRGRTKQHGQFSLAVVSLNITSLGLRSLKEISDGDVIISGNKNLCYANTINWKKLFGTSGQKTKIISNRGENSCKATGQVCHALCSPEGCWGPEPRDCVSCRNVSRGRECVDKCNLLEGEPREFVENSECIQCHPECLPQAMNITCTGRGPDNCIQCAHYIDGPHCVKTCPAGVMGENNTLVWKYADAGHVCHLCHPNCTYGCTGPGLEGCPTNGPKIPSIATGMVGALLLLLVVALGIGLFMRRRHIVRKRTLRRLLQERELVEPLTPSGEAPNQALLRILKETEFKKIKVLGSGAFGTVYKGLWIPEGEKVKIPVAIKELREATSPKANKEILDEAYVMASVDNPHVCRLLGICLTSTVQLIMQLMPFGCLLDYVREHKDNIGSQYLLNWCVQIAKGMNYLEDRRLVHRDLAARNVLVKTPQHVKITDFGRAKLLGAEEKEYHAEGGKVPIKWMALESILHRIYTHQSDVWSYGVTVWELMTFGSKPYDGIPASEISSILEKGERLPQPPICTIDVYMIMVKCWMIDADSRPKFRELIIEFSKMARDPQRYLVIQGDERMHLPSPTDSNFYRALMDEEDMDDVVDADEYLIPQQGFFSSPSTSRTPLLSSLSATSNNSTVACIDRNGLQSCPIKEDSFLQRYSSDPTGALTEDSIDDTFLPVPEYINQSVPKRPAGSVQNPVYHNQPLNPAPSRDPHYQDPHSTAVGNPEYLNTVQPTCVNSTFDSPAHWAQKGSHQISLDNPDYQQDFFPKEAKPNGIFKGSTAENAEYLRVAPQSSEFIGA

This assay addresses EGFR T790M L858R (Homo sapiens, UniProt P00533, L858R/T790M). In words: biochemical. The following applies: EGFR(T790M/L858R) Ki (μM), 5 μM ATP, 30 min, room temperature; apparent Ki (Morrison) converted by Cheng-Prusoff, Km of ATP 1.3 μM.

`COC1CCN(c2nccc(Nc3cc4c(ccn4CC(C)(C)C(N)=O)cn3)n2)CC1` [Example 31, 3-{6-[2-(4-Methoxypiperidin-1-yl)pyrimidin-4-ylamino]pyrrolo[3,2-c]pyridin-1-yl}-2,2-dimethylpropionamide]: the Ki was 0.192 µM. The figure for `Cc1nc2cnc(Nc3ccnc(N4CCC(O)C(O)C4)n3)cc2n1C(C)C` (centres unmarked) [Example 34, 1-[4-(1-Isopropyl-2-methyl-1H-imidazo[4,5-c]pyridin-6-ylamino)pyrimidin-2-yl]piperidine-3,4-diol] is 0.113 µM. The figure for `CC(C)n1cnc2cnc(Nc3ccnc(N4CC5CCC(C4)O5)n3)cc21` [Example 35, N-(2-(8-Oxa-3-aza-bicyclo[3.2.1]octan-3-yl)pyrimidin-4-yl)-1-isopropyl-1H imidazo[4,5-c]pyridin-6-amine] is 0.211 µM. Then `CC(C)n1cnc2cnc(Nc3ccnc(N4CC5(C4)CN(S(C)(=O)=O)C5)n3)cc21` [Example 38, 1-Isopropyl-N-(2-(6-(methylsulfonyl)-2,6-diazaspiro[3.3]heptan-2-yl)pyrimidin-4-yl)-1H-imidazo[4,5-c]pyridin-6-amine], with 1.83 µM; and `CC(C)n1cnc2cnc(Nc3ccnc(NCCS(C)(=O)=O)n3)cc21` [Example 39, N^4-(1-isopropyl-1H-imidazo[4,5-c]pyridin-6-yl)-N2-(2-(methylsulfonyl)ethyl)pyrimidine-2,4-diamine], with 1.08 µM. For `CC(C)n1cnc2cnc(Nc3ccnc(Nc4cnn(C)c4)n3)cc21` [Example 40, N^4-(1-Isopropyl-1H-imidazo[4,5-c]pyridin-6-yl)-N^2-(1-methyl-1H-pyrazol-4-yl)pyrimidine-2,4-diamine], the Ki was 0.82 µM.

On to `COC1CCN(c2nccc(Nc3cc4c(cn3)nc(C(F)(F)F)n4C(C)C)n2)CC1` [Example 41, 1-Isopropyl-N-(2-(4-methoxypiperidin-1-yl)pyrimidin-4-yl)-2-(trifluoromethyl)-1H-imidazo[4,5-c]pyridin-6-amine], for which the Ki was determined as 0.119 µM. Then `CC(C)n1cnc2cnc(Nc3ccnc(Nc4cn[nH]c4)n3)cc21` [Example 42, N^4-(1-Isopropyl-1H-imidazo[4,5-c]pyridin-6-yl)-N^2-(1H-pyrazol-4-yl)pyrimidine-2,4-diamine], with 0.173 µM. The figure for `CC(C)n1cnc2cnc(Nc3ccnc(N4CCC(OC(F)(F)F)CC4)n3)cc21` [Example 43, 1-Isopropyl-N-(2-(4-(trifluoromethoxy)piperidin-1-yl)pyrimidin-4-yl)-1H-imidazo[4,5-c]pyridin-6-amine] is 0.312 µM; for `CC(C)n1cnc2cnc(Nc3ccnc(N4C[C@@H]5[C@@H](N)[C@@H]5C4)n3)cc21` [Example 44, N-(2-((1R,5S,6s)-6-Amino-3-azabicyclo[3.1.0]hexan-3-yl)pyrimidin-4-yl)-1-isopropyl-1H-imidazo[4,5-c]pyridin-6-amine] it is 0.587 µM; for `CN[C@H]1[C@@H]2CN(c3nccc(Nc4cc5c(cn4)ncn5C(C)C)n3)C[C@@H]21` [Example 45, 1-Isopropyl-N-(2-((1R,5S,6s)-6-(methylamino)-3-azabicyclo[3.1.0]hexan-3-yl)pyrimidin-4-yl)-1H-imidazo[4,5-c]pyridin-6-amine] it is 0.669 µM. The figure for `Cc1nc2cnc(Nc3ccnc(N4CCc5[nH]ncc5C4)n3)cc2n1C(C)C` [Example 46, N-(2-(6,7-Dihydro-1H-pyrazolo[4,3-c]pyridin-5(4H)-yl)pyrimidin-4-yl)-1-isopropyl-2-methyl-1H-imidazo[4,5-c]pyridin-6-amine] is 0.0122 µM; for `CC(C)n1cnc2cnc(Nc3ccnc(N4C[C@@H]5[C@@H](CO)[C@@H]5C4)n3)cc21` [Example 47, ((1R,5S,6r)-3-(4-((1-isopropyl-1H-imidazo[4,5-c]pyridin-6-yl)amino)pyrimidin-2-yl)-3-azabicyclo[3.1.0]hexan-6-yl)methanol] it is 0.522 µM.

With `COC[C@@H]1[C@H]2CN(c3nccc(Nc4cc5c(cn4)ncn5C(C)C)n3)C[C@@H]12` [Example 48, 1-isopropyl-N-(2-((1R,5S,6r)-6-(methoxymethyl)-3-azabicyclo[3.1.0]hexan-3-yl)pyrimidin-4-yl)-1H-imidazo[4,5-c]pyridin-6-amine], the Ki is 1.62 µM. Then `CC(C)n1cnc2cnc(Nc3ccnc(Nc4ccn(Cc5ccccc5)n4)n3)cc21` [Example 49, N^2-(1-Benzyl-1H-pyrazol-3-yl)-N4-(1-isopropyl-1H-imidazo[4,5-c]pyridin-6-yl)pyrimidine-2,4-diamine], with 0.474 µM. As for `COc1ccc(-c2nccc(Nc3cc4c(cn3)ncn4C(C)C)n2)cc1` [Example 53, 1-Isopropyl-N-(2-(4-methoxyphenyl)pyrimidin-4-yl)-1H-imidazo[4,5-c]pyridin-6-amine], the Ki turned out to be 0.031 µM. The figure for `COc1ccc(-c2nccc(Nc3cc4c(cn3)ncn4C(C)C)n2)cn1` [Example 54, 1-Isopropyl-N-(2-(6-methoxypyridin-3-yl)pyrimidin-4-yl)-1H-imidazo[4,5-c]pyridin-6-amine] is 0.0418 µM.

As for `CCOc1ncc(-c2nccc(Nc3cc4c(cn3)ncn4C(C)C)n2)cn1` [Example 55, N-(2′-Ethoxy-[2,5′-bipyrimidin]-4-yl)-1-isopropyl-1H-imidazo[4,5-c]pyridin-6-amine], the Ki was determined as 0.468 µM. As for `CC(C)OC1CCN(c2nccc(Nc3cc4c(cn3)ncn4C(C)C)n2)CC1` [Example 56, N-(2-(4-Isopropoxypiperidin-1-yl)pyrimidin-4-yl)-1-isopropyl-1H-imidazo[4,5-c]pyridin-6-amine], the Ki was found to be 0.247 µM.

As to `COC1CCN(c2nccc(Nc3cc4c(cn3)c(C#N)cn4C(C)C)n2)CC1` [Example 58, 1-Isopropyl-6-((2-(4-methoxypiperidin-1-yl)pyrimidin-4-yl)amino)-1H-pyrrolo[3,2-c]pyridine-3-carbonitrile], the Ki amounted to 0.0097 µM.

For `CC(C)n1cc(C(N)=O)c2cnc(Nc3ccnc(N4CCc5[nH]ncc5C4)n3)cc21` [Example 60, 6-((2-(6,7-Dihydro-1H-pyrazolo[4,3-c]pyridin-5(4H)-yl)pyrimidin-4-yl)amino)-1-isopropyl-1H-pyrrolo[3,2-c]pyridine-3-carboxamide], the Ki worked out at 0.0057 µM. Then `CNC(=O)c1cn(-c2nccc(Nc3cc4c(cn3)nc(C)n4C(C)C)n2)cn1` [Example 61, 1-(4-((1-Isopropyl-2-methyl-1H-imidazo[4,5-c]pyridin-6-yl)amino)pyrimidin-2-yl)-N-methyl-1H-imidazole-4-carboxamide], with 0.787 µM; and `CC(C)n1cnc2cnc(Nc3ccnc(-c4ccc(O)nc4)n3)cc21` [Example 62, 5-(4-((1-Isopropyl-1H-imidazo[4,5-c]pyridin-6-yl)amino)pyrimidin-2-yl)pyridin-2-ol], with greater than 0.229 µM; and `COC1CCN(c2nccc(Nc3cc4c(cn3)c(C(=O)NCCn3ccnc3)cn4C(C)C)n2)CC1` [Example 63, N-(2-(1H-Imidazol-1-yl)ethyl)-1-isopropyl-6-(2-(4-methoxypiperidin-1-yl)pyrimidin-4-ylamino)-1H-pyrrolo[3,2-c]pyridine-3-carboxamide], with 0.0088 µM. Then `COC1CCN(c2nccc(Nc3cc4c(cn3)c(-c3cc[nH]n3)cn4C(C)C)n2)CC1` [Example 64], with 0.001 µM; and `COC1CCN(c2nccc(Nc3cc4c(cn3)ncn4C(C)C)n2)C1` (centres unmarked) [Example 65, 1-isopropyl-N-(2-(3-methoxypyrrolidin-1-yl)pyrimidin-4-yl)-1H-imidazo[4,5-c]pyridin-6-amine], with 0.579 µM; and `CC(C)n1cnc2cnc(Nc3ccnc(N4CCCC(C(N)=O)C4)n3)cc21` (centres unmarked) [Example 66, 1-(4-(1-isopropyl-1H-imidazo[4,5-c]pyridin-6-ylamino)pyrimidin-2-yl)piperidine-3-carboxamide], with 0.593 µM. As for `CC(=O)NC1CN(c2nccc(Nc3cc4c(cn3)ncn4C(C)C)n2)C1` [Example 67, N-(1-(4-(1-isopropyl-1H-imidazo[4,5-c]pyridin-6-ylamino)pyrimidin-2-yl)azetidin-3-yl)acetamide], the Ki came to 1.49 µM.

Regarding `CC(=O)N1CC2CN(c3nccc(Nc4cc5c(cn4)ncn5C(C)C)n3)CC2C1` (centres unmarked) [Example 68, 1-(5-(4-(1-isopropyl-1H-imidazo[4,5-c]pyridin-6-ylamino)pyrimidin-2-yl)-hexahydropyrrolo[3,4-c]pyrrol-2(1H)-yl)ethanone], the Ki is 1.71 µM.

On to `CC(C)n1cnc2cnc(Nc3ccnc(N4CC5CN(S(C)(=O)=O)CC5C4)n3)cc21` (centres unmarked) [Example 69, 1-isopropyl-N-(2-(5-(methylsulfonyl)-hexahydropyrrolo[3,4-c]pyrrol-2(1H)-yl)pyrimidin-4-yl)-1H-imidazo[4,5-c]pyridin-6-amine], for which the Ki turned out to be 0.384 µM.

`CC(C)n1cnc2cnc(Nc3ccnc(N4CCN(C(N)=O)CC4)n3)cc21` [Example 70, 4-(4-(1-isopropyl-1H-imidazo[4,5-c]pyridin-6-ylamino)pyrimidin-2-yl)piperazine-1-carboxamide]: the Ki was 0.216 µM. The figure for `CC(C)n1cnc2cnc(Nc3ccnc(N4CCC5(CCN(S(C)(=O)=O)C5)C4)n3)cc21` (centres unmarked) [Example 71, 1-isopropyl-N-(2-(7-(methylsulfonyl)-2,7-diazaspiro[4.4]nonan-2-yl)pyrimidin-4-yl)-1H-imidazo[4,5-c]pyridin-6-amine] is 0.386 µM.

On to `COC1CCCN(c2nccc(Nc3cc4c(cn3)ncn4C(C)C)n2)C1` (centres unmarked) [Example 72, 1-isopropyl-N-(2-(3-methoxypiperidin-1-yl)pyrimidin-4-yl)-1H-imidazo[4,5-c]pyridin-6-amine], for which the Ki is 0.173 µM. For `CC(C)n1cnc2cnc(Nc3ccnc(N4CCC(NC(N)=O)CC4)n3)cc21` [Example 73, 1-(1-(4-(1-isopropyl-1H-imidazo[4,5-c]pyridin-6-ylamino)pyrimidin-2-yl)piperidin-4-yl)urea], the Ki came out at 0.11 µM. Then `CC(C)n1cnc2cnc(Nc3ccnc(N4CCC(C)(C(N)=O)CC4)n3)cc21` [Example 74, 1-(4-(1-isopropyl-1H-imidazo[4,5-c]pyridin-6-ylamino)pyrimidin-2-yl)-4-methylpiperidine-4-carboxamidc], with 0.101 µM.
